Data: patent US20050119337A1, “Methods of application of Schisandrin B in the preparation of anticancer medications” (priority 2003, published 2005)

Tested on: human epidermoid carcinoma MDR cell line KBV200
Experiment: Reversal of drug resistance of KBV200, MTT assay, 72 h
Conditions: IC50 in the absence / IC50 in the presence of Schisandrin B (10 μg/ml)

SMILES: COc1cccc2c1C(=O)c1c(O)c3c(c(O)c1C2=O)C[C@@](O)(C(=O)CO)C[C@@H]3O[C@H]1C[C@H](N)[C@H](O)[C@H](C)O1 [Doxorubicin, doxorubicin]
- RF (Schisandrin B): 4.74
